For one experiment, the target named is CBP bromodomain (Homo sapiens, UniProt Q92793). The experiment in a line: BROMOscan competition binding assay. As to conditions: according to BROMOscan.
In a further experiment the target is bromodomain of CBP (Homo sapiens, UniProt Q92793). The experiment in a line: Alpha Screen assay. It counts as binding. As to conditions: according to AlphaScreen. (In general: In Alpha technology, singlet oxygen from a donor bead excites a nearby acceptor bead.)

By UniProt entry, the sequences of proteins in these tests, tags left out. Residues count along the entry.
UniProt Q92793, 1085-1192 limits assumed: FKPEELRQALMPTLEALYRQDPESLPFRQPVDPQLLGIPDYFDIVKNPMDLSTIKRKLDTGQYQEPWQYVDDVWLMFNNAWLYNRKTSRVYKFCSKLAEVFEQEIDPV

With `CCOc1ccc(C(C)=O)cc1NC(=O)c1cc(NC(C)=O)cc(NC(=O)c2ccco2)c1` [Compound 16], the “ligand efficiency for CBP” value at CBP bromodomain is given as 0.31 kcal mol^–1 per non-hydrogen atom; at bromodomain of CBP, 0.32 kcal mol^–1 per non-hydrogen atom.
